Reference: paper PMC4139204, “Insight into the Architecture of the NuRD Complex” (The Journal of Biological Chemistry, 2014)

Key:
Assay type in all cases: cell-based, D. melanogaster (Dmel-2 cells)
Nurf55 WT [1] = assay: Protein A affinity purification with wild-type Nurf55 bait, mass spectrometry
From the text: (§1) Full-length Nurf55 (also known as p55 and CAF1) is the D. melanogaster homolog of RbAp46/p48. It was PCR-amplified and cloned into the pDONR221 vector via the BP (recombination and insertion of the att B sequence into the att P recombination site) reaction using standard Gateway Technology (Invitrogen) protocols. Five residues in this plasmid were mutated (L35Y, E361Q, D362N, E364Q, D365N) to create pDONR-Nurf55mut using the QuikChange Lightning Site-directed Mutagenesis kit (Agilent Technologies). The resulting wild-type and mutant clones were verified by sequencing. Primer sequences for the constructs are available on request. The Nurf55 genes were then transferred into destination vectors for the inducible expression of protein A- or GFP-tagged fusion proteins by the LR (insertion of sequences containing att L sites into destination att R sites) reaction according to the manufacturer's instructions.
(§2) D. melanogaster Dmel-2 cell lines stably expressing either tagged wild-type or mutant Nurf55 (containing the L35Y, E361Q, D362N, E364Q, and D365N mutations) were established. Affinity purification of protein A- and GFP-tagged bait and interacting proteins followed by mass spectrometry identification was carried out as previously reported ([39][–][41]). […]

Nurf55 MUT [2] = assay: Protein A affinity purification with mutant Nurf55 bait, mass spectrometry
From the text: as §1, §2

Nurf55 MUT [3] = assay: GFP affinity purification with mutant Nurf55 bait, mass spectrometry; conditions: anti-GFP nanobody beads, Dmel-2 cells, triplicate, lowest number of unique peptides listed, mutant E361Q, D362N, E364Q, D365N, L35Y
From the text: as §1, with “instructions. […]” for “instructions.”
(§3) We also identified Simjang and CG18292 as possible Drosophila homologs of the mammalian GATAD2A/2B (p66α/p66β) and CDK2AP (DOC1 ([46])) proteins, respectively. […] However, once again the numbers of NuRD complex peptides detected with the Nurf55 mutant were reduced greatly (see Table 2), confirming that disruption of the RbAp48-MTA1 interface we identified abolishes the association of RbAp48 with the NuRD complex.

Nurf55 WT [4] = assay: GFP affinity purification with wild-type Nurf55 bait, mass spectrometry; conditions: anti-GFP nanobody beads, Dmel-2 cells, triplicate, lowest number of unique peptides listed
From the text: as §1, with “instructions. […]” for “instructions.”
as §3

dMi-2: known subunit of the D. melanogaster NuRD complex, Mi-2 (dCHD)
Number of peptides identified, Nurf55 WT (Nurf55 WT [1]; IgG beads, Dmel-2 cells): 6
interaction with Nurf55 (Nurf55 WT [1]; wild-type Nurf55): pulled down by Nurf55
Number of peptides identified, Nurf55 MUT (Nurf55 MUT [2]; IgG beads, Dmel-2 cells, mutant E361Q, D362N, E364Q, D365N, L35Y): 0
interaction with Nurf55mut (Nurf55 MUT [2]; Nurf55mut): not observed
Number of peptides identified, Nurf55 MUT (Nurf55 MUT [3]): 14
Number of peptides identified, Nurf55 WT (Nurf55 WT [4]): 49
